Experiment: logD measurement by sampling of octanol/buffer two-layer sample with plug liquid, HPLC and mass spectrometer
Settings: octanol/buffer solution; average of three measurements (only one measurement for amiodarone)

Imipramine
logD, Measured value: 2.7
